The values that follow come from patent US20260258397A1, “REAGENTS AND SYSTEMS FOR GENERATING BIOSENSORS” (priority 2023, published 2026).

For one assay, the target named is T1, PYR1^PIRI (Arabidopsis thaliana, UniProt O49686, A160T/E130G/F159T/K59R/N119S/S122Q/S92M/V174A).
T1 construct: expressed in transfected cells; host or cells: S. cerevisiae (2µ plasmid)
T1 sequence (O49686 1-191 K59R/S92M/N119S/S122Q/E130G/F159T/A160T/V174A): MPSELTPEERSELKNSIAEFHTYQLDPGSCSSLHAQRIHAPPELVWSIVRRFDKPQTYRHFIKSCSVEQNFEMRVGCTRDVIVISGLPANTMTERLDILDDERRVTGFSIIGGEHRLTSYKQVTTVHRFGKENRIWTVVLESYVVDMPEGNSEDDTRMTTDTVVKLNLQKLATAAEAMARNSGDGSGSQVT
T1 sequence (Q9CAJ0 178-511 partner): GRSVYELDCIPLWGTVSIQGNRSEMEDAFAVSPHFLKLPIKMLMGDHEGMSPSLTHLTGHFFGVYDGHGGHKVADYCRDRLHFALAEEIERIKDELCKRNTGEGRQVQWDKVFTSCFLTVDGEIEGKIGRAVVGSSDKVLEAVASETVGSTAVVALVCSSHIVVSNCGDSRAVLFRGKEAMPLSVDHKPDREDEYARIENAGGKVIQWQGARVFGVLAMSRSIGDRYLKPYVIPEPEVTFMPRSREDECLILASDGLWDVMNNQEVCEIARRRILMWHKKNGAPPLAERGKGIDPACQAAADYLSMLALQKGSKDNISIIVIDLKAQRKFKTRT
The assay can be described thus: cell-based. From the text: (§1) PYR1 variants were used to drive gene expression in an inducible genetic circuit by fusing a zinc finger DNA binding domain (Z4^32) to the N-terminus of PYR1, and the VP64 activation domain 33 to the N-terminus of ΔN-HAB1. The SV40 nuclear localization signal was also fused to the N-terminus of PYR1. A single 2u plasmid was used to express SV40-Z4DBD-PYR1 and VP64-HAB1, while the GFP expression cassette (Z44-CYCcore-GFP-CYC 1term) was integrated at the YPRCΔ15 site on chromosome XVI. GFP fluorescence induced by each circuit was measured 12 h after ligand addition to 1 mL cultures, 30° C. Fluorescence was measured by flow cytometry. […] The fluorescence intensity of each cell was measured using a BD Accuri C6 flow cytometer equipped with auto-loading. The forward scatter, side scatter, and GFP fluorescence (Ex/Em 488/533 nm) were recorded for a minimum of 10,000 events. […]
(§2) Three single transformants were picked from selection plates, inoculated in 2 mL of SD-Ura containing 2% glucose in 14 mL culture tubes. After 24 hours of growth at 30° C. in a shaker incubator (200 rpm), the OD600 of each sample was measured and cultures were back diluted to OD600=0.2 in fresh SD-Ura, the total volume of diluted culture was 9 mL. […] The fluorescence intensity of cells within each sample was measured using a BD Accuri C6 flow cytometer equipped with auto-loading from 96 well plates. […]

In a further assay the target is T2, PYR1^DIAZI (Arabidopsis thaliana, UniProt O49686, A160V/E8G/F108Y/F159G/L87M/M158V/V81Y).
T2 construct: expressed in transfected cells; host or cells: S. cerevisiae (2µ plasmid)
T2 sequence (O49686 1-191 E8G/V81Y/L87M/F108Y/M158V/F159G/A160V): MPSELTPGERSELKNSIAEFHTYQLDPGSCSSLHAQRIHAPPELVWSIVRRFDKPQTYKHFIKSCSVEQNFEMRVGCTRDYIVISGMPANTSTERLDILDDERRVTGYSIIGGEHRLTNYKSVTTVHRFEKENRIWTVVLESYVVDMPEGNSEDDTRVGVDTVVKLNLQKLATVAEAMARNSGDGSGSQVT
T2 sequence (Q9CAJ0 178-511 partner): T1 sequence (Q9CAJ0 178-511 partner)
The assay can be described thus: cell-based.
From the text: as §1, §2

By EC50 is commonly meant the concentration at which the effect is half-maximal.

Molecules are shown by their SMILES.

On to `CCOP(=O)(OCC)Oc1ccc([N+](=O)[O-])cc1` [Paraoxon], for which the figures for the concentration for a half-maximal effect (EC50) on PYR1^PIRI and on PYR1^DIAZI were 2.37 µM and 1.24 µM, respectively.
